One may read the inhibition as the change of the read-out against control, counted positive when it falls.

By UniProt entry, the sequences of proteins in these tests, tags left out.
UniProt Q9Y2R2, whole entry: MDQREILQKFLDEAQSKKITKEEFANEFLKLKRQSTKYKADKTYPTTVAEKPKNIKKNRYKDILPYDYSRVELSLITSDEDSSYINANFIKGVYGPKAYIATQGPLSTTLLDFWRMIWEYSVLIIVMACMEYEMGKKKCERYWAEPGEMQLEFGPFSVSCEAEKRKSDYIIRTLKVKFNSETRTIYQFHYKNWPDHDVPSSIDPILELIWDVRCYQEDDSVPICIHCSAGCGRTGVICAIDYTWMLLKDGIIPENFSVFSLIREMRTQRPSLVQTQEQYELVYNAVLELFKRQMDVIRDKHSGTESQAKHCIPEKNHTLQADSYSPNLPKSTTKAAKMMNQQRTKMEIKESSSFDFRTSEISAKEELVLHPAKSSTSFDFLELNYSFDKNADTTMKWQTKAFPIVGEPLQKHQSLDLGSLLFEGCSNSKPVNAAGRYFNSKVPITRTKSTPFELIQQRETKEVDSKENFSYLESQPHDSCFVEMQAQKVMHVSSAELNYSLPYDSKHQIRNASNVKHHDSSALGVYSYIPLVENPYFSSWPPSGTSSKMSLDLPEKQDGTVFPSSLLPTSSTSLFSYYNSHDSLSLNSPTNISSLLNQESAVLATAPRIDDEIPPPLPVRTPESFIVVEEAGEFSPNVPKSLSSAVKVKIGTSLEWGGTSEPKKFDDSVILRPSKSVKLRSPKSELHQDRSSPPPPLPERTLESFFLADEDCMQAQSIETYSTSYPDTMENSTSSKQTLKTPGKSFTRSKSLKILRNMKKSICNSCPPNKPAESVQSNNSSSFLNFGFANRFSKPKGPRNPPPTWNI

Only a part is listed here, and it is no random draw. The source made the active and inactive calls.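 How the source made its calls: active means inhibition at 2 µM at or above a set limit, the screen mean plus 3 SD (cut at about 24% in these data); inactive means the rest.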

The assay deals with Tyrosine-protein phosphatase non-receptor type 22 (Homo sapiens) (UniProt Q9Y2R2). Description: blockers of human LYP enzyme activity – biochemical, DiFMUP fluorescence, 2 µM, primary screen (AID 640).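 Further: 0% = DMSO with enzyme and 100% = enzyme fully blocked by orthovanadate.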 Conditions: recombinant LYP catalytic domain, at 2 µM, hits give high values.
Consider `CP(=O)(Nc1ccccc1F)Oc1ccccc1` (stereo not given), for which the inhibition was inactive: 0.4%. Take `CCN(CC)CCCOC(=O)C(O)(c1ccccc1)C1CCCCC1` (stereo not given): the inhibition was inactive: 4.2%. Take `CP(=O)(Nc1ccccc1)Oc1ccc(F)cc1` (stereo not given): the inhibition is inactive: 2.7%. For the compound `COc1ccc(OP(C)(=O)Nc2cccc(Br)c2)cc1` (stereo not given), the inhibition was inactive: 10.3%. To `CN(C)CCOC(=O)C(O)(c1ccccc1)C1CCCCC1` (stereo not given) belongs inactive: 3.4%. To `CCOP(C)(=S)SCC(=O)NC(C)(CC)C(=O)O` (stereo not given) belongs inactive: -4.8%; to `CP(=O)(Nc1ccc2c(c1)OCCO2)Oc1ccccc1` (stereo not given), inactive: -8.1%; to `CCN(CC)CC(O)COC(=O)C(O)(c1ccccc1)C1CCCCC1` (stereo not given), inactive: 4.7%. To `COc1ccccc1OP(C)(=O)Nc1c(C)n(C)n(-c2ccccc2)c1=O` (stereo not given) belongs inactive: -8.7%; to `CP(=O)(Oc1ccccc1)N1CCOC1=O` (stereo not given), inactive: 9.8%; to `CC(C)(C)c1ccc(OP(C)(=O)O)cc1`, inactive: 5%.

On to `CP(=O)(Nc1ccc(Cl)cc1)Oc1ccc(F)cc1` (stereo not given), for which the inhibition is inactive: -5.5%.

For the compound `CP(=O)(OC12CC3CC(CC(C3)C1)C2)OC12CC3CC(CC(C3)C1)C2`, the inhibition is inactive: -8.6%. To `COc1ccccc1OP(C)(=O)Nc1ccc(C)c(C)c1` (stereo not given) belongs inactive: 0.8%; to `Cc1nc2ccc3ccccc3c2o1.O=[N+]([O-])c1cc([N+](=O)[O-])c(O)c([N+](=O)[O-])c1`, inactive: -6.3%; to `COc1ccc(OP(C)(=O)Nc2ccccn2)cc1` (stereo not given), inactive: 1.6%. With `CN(C)CCOC(=O)C(O)(c1ccccc1)C1CCCC1` (stereo not given), the inhibition is inactive: -15.4%. For `Cc1c(NP(C)(=O)Oc2ccc(C(C)C)cc2)c(=O)n(-c2ccccc2)n1C` (stereo not given), the inhibition was inactive: 6.1%. To `CP(=O)(Nc1ccccn1)Oc1ccccc1` (stereo not given) belongs inactive: -1.1%.

As for `COc1ccccc1OP(C)(=O)Nc1ccc(C)cc1C` (stereo not given), the inhibition is inactive: -6.2%. To `CCc1ccc(OP(C)(=O)O)cc1` belongs inactive: -2.2%; to `COc1ccc(OP(C)(=O)Nc2cccc(F)c2)cc1` (stereo not given), inactive: -1.9%.

Regarding `CP(=S)(Nn1cnnc1)Oc1ccccc1` (stereo not given), the inhibition is inactive: 2.8%.

On to `CP(=O)(NC(=O)Nc1ccccc1)Oc1ccccc1` (stereo not given), for which the inhibition is inactive: -9.3%. To `CP(=O)(Nc1ccccn1)Oc1ccc(Cl)cc1` (stereo not given) belongs inactive: 2.5%; to `Cc1nc2ccc3ccccc3c2s1.O=[N+]([O-])c1cc([N+](=O)[O-])c(O)c([N+](=O)[O-])c1`, inactive: 5.3%; to `COc1ccccc1OP(C)(=O)Nc1c(C)cccc1C` (stereo not given), inactive: -14.2%. To `Cc1cc(C)cc(OP(C)(=O)Nc2ccc(C)cc2C)c1` (stereo not given) belongs inactive: -5.6%; to `Cc1ccc(C)c(NP(C)(=O)Oc2ccccc2)c1` (stereo not given), inactive: 15.5%; to `Cc1cc(C)cc(OP(C)(=O)Nc2ccccn2)c1` (stereo not given), inactive: 0.5%.
